Columns and labels:
human isoQC [1] = target: human isoQC (Homo sapiens, UniProt Q9NXS2); assay: Kinetic evaluation of peptide substrates of human isoQC; type: biochemical; parameters: The cDNA of the mature human isoQC starting with codon 30 (counting from methionine II); His6 (C-His) (C); yeast alpha-factor secretion signal (YSS) (N); made in house; host or cells: Pichia pastoris X-33; settings: human isoQC expressed in E. coli BL21 (hisoQCdt)
Description: (§1) Excitation/emission wavelengths were 320/410 nm.
(§2) Excitation/emission wavelengths were 380/460 nm.
(§3) Kinetic data were evaluated using GraFit software.

Amino acid sequences for entries named in this document (tags omitted). Residues count along the entry.
UniProt Q9NXS2, 48-382: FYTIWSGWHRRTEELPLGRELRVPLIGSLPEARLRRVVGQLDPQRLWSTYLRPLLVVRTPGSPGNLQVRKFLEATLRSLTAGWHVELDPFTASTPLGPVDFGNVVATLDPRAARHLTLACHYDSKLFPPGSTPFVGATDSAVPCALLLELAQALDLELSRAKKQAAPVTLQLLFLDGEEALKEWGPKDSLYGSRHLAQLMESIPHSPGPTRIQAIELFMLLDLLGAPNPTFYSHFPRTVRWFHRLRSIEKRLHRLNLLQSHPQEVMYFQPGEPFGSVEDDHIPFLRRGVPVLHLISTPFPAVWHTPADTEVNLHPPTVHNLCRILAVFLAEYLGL
UniProt Q9NXS2, 48-382 I73N/C369A: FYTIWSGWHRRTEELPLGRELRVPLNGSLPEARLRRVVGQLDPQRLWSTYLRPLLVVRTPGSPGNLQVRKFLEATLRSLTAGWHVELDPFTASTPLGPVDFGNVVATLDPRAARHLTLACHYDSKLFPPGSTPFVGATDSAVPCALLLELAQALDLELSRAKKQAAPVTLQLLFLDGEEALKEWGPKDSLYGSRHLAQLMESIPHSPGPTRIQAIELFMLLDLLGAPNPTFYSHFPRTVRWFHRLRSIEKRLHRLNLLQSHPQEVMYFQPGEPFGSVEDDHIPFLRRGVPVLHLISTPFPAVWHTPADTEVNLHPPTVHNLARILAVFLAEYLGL

human isoQC [2] = target: human isoQC (Homo sapiens, UniProt Q9NXS2, C369A/I73N); assay: as above; type: biochemical; parameters: The cDNA of the mature human isoQC starting with codon 30 (counting from methionine II); His6 (C-His) (C); yeast alpha-factor secretion signal (YSS) (N); made in house; host or cells: Pichia pastoris X-33; settings: human isoQC expressed in P. pastoris (YSShisoQC)
Description: as §1, §2, §3

Km (human isoQC [1]): 0.22 ± 0.01 mM
Km (human isoQC [2]): 0.08 ± 0.022 mM
SMILES: C[C@H](NC(=O)[C@H](Cc1ccc(O)cc1)NC(=O)[C@@H](N)CCC(N)=O)C(=O)O [QYA]

Source: patent publication US8889709B2, “Use of isoQC inhibitors in the treatment and prevention of inflammatory diseases or conditions” (Probiodrug AG, priority 2006, dated 2014)
